Results: ChEMBL document CHEMBL1124909 (J Med Chem, 1990)

Experiments:
Mus musculus [1] = assay: The percentage 30-day survival of the mice at 75 mg/kg dose, with the radiation dose of 9.5 GY.
Mus musculus [2] = assay: The percentage 30-day survival of the mice at 150 mg/kg dose, with the radiation dose of 9.5 GY.
Mus musculus [3] = assay: The percentage 30-day survival of the mice at 300 mg/kg dose, with the radiation dose of 9.5 GY.
Mus musculus [4] = assay: Antiradiation tests were performed in groups of 10 mice against lethal gamma-radiation 30 min after intraperitoneal dosing. Lethal dose that causes toxic deaths in mice.; settings: in vivo, ip, 0.5 h
Mus musculus [5] = assay: The percentage 30-day survival of the mice at 37.5 mg/kg dose, with the radiation dose of 9.5 GY.
Mus musculus [6] = assay: The percentage 30-day survival of the mice at 600 mg/kg dose, with the radiation dose of 10 GY.; assay type: functional
Mus musculus [7] = assay: The percentage 30-day survival of the mice at 300 mg/kg dose, with the radiation dose of 10 GY.; assay type: functional
Mus musculus [8] = assay: The percentage 30-day survival of the mice at 150 mg/kg dose, with the radiation dose of 10 GY.
Mus musculus [9] = assay: The percentage 30-day survival of the mice at 75 mg/kg dose, with the radiation dose of 10 GY.
Mus musculus [10] = assay: The percentage 30-day survival of the mice at 37.5 mg/kg dose, with the radiation dose of 10 GY.
Mus musculus [11] = assay: The percentage 30-day survival of the mice at 100 mg/kg dose, with the radiation dose of 9.5 GY.
Mus musculus [12] = assay: The percentage 30-day survival of the mice at 25 mg/kg dose, with the radiation dose of 10 GY.
Mus musculus [13] = assay: The percentage 30-day survival of the mice at 50 mg/kg dose, with the radiation dose of 10 GY.

## CC(C)(C)NC(=O)CCNCCSP(=O)([O-])[O-].[Li+].[Li+]
Mus musculus [1]
  Survival: 40%
Mus musculus [2]
  Survival: 60%
Mus musculus [3]
  Survival: 80%
Mus musculus [4]
  LD50: > 300 mg/kg

## N=C(N)CCNCCSP(=O)(O)O
Mus musculus [1]
  Survival: 70%
Mus musculus [2]
  Survival: 100%
Mus musculus [5]
  Survival: 10%

## CNC(=O)CCNCCSP(=O)([O-])O.[Li+]
Mus musculus [6]
  Survival: 80%
Mus musculus [7]
  Survival: 20%
Mus musculus [4]
  LD50: > 600 mg/kg

## NC(=O)CCNCCSP(=O)([O-])O.[Li+]
Mus musculus [6]
  Survival: 70%
Mus musculus [7]
  Survival: 10%
Mus musculus [8]
  Survival: 0%

## C/N=C(/S)CCNCCSP(=O)([O-])O.[Li+]
Mus musculus [9]
  Survival: 0%
Mus musculus [8]
  Survival: 80%
Mus musculus [10]
  Survival: 0%

## O=P([O-])(O)SCCNCCC1=NCCN1.[Li+]
Mus musculus [1]
  Survival: 20%
Mus musculus [11]
  Survival: 80%
Mus musculus [5]
  Survival: 0%

## C/N=C(/N)CCNCCSP(=O)(O)O
Mus musculus [1]
  Survival: 50%
Mus musculus [2]
  Survival: 80%
Mus musculus [5]
  Survival: 30%

## N=C(S)CCNCCSP(=O)([O-])O.[Li+]
Mus musculus [1]
  Survival: 10%
Mus musculus [2]
  Survival: 40%
Mus musculus [3]
  Survival: 100%

## NC(=O)CCNCCSP(=O)(O)O
Mus musculus [12]
  Survival: 0%
Mus musculus [13]
  Survival: 0%
